Here are results for one molecule from ChEMBL document CHEMBL1156630, “Investigations on the 4-quinolone-3-carboxylic acid motif. 2. Synthesis and structure-activity relationship of potent and selective cannabinoid-2 receptor agonists endowed with analgesic activity in vivo” (J Med Chem, 2008).

By UniProt entry, the sequences of proteins in these tests, tags left out.
UniProt P21554, whole entry: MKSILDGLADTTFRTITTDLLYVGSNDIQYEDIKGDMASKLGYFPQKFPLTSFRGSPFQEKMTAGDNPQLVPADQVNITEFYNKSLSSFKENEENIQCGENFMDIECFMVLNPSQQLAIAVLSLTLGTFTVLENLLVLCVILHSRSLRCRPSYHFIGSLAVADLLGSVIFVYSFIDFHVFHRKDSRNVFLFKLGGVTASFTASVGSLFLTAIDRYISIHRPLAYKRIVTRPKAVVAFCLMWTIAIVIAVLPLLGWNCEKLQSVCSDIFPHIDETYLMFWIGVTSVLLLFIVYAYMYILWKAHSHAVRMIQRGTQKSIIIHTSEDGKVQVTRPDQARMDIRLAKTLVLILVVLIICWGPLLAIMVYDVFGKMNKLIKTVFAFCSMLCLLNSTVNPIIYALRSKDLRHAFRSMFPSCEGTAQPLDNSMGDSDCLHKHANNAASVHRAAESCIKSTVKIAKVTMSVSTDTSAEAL
UniProt P34972, whole entry: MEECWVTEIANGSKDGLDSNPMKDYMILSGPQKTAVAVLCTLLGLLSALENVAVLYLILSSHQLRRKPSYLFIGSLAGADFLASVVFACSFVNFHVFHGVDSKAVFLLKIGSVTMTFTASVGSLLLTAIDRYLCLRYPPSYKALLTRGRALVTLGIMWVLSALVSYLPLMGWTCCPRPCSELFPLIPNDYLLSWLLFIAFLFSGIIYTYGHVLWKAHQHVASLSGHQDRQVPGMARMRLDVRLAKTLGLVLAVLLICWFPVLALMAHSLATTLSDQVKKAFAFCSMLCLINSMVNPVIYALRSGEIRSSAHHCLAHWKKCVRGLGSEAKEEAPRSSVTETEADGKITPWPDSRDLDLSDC

The target of one assay is Cannabinoid receptor 1 (Homo sapiens, UniProt P21554). The format is cell-based, HEK293.
The target in the next assay is Cannabinoid receptor 2 (Homo sapiens, UniProt P34972). In words: Displacement of [3H]CP-55940 from human CB2 receptor expressed in HEK293 cells. Format: cell-based.
Another assay is filed under the species Homo sapiens. As to the kind of experiment: Selectivity for human CB2 receptor over human CB1 receptor.

As to `CCCCCn1cc(C(=O)NC23CC4CC(CC(C4)C2)C3)c(=O)c2cc(C(C)C)ccc21`, the values for the Ki at Cannabinoid receptor 1 and on Cannabinoid receptor 2 were 1220 nM and 6.3 nM, respectively. The Ratio Ki in the assay listed under Homo sapiens was found to be 194.
